According to PMC11310375 (EJNMMI Radiopharmacy and Chemistry, 2024):

System: MCF-7 cells
Assay: Caspase activity assay with fluorogenic substrate Ac-DEVD-AMC in cell lysates
Type: cell-based, human
Conditions: MCF-7 cells treated with STS

CN[C@@H]1C[C@H]2O[C@@](C)([C@@H]1OC)n1c3ccccc3c3c4c(c5c6ccccc6n2c5c31)C(=O)NC4 [STS, staurosporine]
AMC liberation (caspase activity): 253 ± 56 pmol AMC
